Assay results taken from ChEMBL document CHEMBL6127128, “Discovery of the First-in-Class Dual-Target ROCK/HDAC Inhibitor with Potent Antitumor Efficacy in Vivo That Trigger Antitumor Immunity” (J Med Chem, 2024).

Target: T1, Polyamine deacetylase HDAC10 (Homo sapiens, UniProt Q969S8)
T1 sequence (Q969S8 whole entry): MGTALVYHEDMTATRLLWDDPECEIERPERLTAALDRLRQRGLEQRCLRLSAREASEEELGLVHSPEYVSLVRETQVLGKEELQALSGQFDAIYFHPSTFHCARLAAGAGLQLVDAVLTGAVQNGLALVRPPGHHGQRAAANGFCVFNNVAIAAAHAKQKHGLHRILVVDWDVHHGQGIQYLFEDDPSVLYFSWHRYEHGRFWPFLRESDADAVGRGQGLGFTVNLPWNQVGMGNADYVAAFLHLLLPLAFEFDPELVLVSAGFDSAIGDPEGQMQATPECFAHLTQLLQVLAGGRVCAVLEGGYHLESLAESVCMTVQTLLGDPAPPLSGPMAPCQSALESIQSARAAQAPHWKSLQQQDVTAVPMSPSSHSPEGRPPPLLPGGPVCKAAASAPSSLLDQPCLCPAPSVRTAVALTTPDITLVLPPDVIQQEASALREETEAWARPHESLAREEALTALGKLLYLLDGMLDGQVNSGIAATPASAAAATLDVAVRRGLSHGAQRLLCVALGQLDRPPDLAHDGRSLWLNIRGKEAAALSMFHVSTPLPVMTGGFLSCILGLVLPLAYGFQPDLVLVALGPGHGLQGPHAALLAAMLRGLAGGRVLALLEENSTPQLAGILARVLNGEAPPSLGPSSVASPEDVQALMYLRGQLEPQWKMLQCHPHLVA
Assay: Inhibition of HDAC10 (unknown origin) using Ac-Arg-His-Lys(Ac)-Lys(Ac)-AMC as substrate preincubated for 5 mins followed by substrate addition for 30 mins and measured following trypsin addition for 30 mins by fluorescence based analysis

How did the IC50 turn out when `O=C(CCCCCCC(=O)Nc1ccccc1)NO` [VORINOSTAT] was run?
Its IC50 is greater than 10 µM.
